Measured values from paper PMC9250534, “Synthesis and direct assay of large macrocycle diversities by combinatorial late-stage modification at picomole scale” (Nature Communications, 2022).
pKd, pKi: −log10 of the molar value. Where “and” joins values, the source holds several entries; their conditions need not be identical. Equal values may be shown once. Read-outs that look alike come from different tables or passages of the source.

Sequences of proteins named here, by UniProt entry; tags and fusion partners are left off.
UniProt Q00987, whole entry: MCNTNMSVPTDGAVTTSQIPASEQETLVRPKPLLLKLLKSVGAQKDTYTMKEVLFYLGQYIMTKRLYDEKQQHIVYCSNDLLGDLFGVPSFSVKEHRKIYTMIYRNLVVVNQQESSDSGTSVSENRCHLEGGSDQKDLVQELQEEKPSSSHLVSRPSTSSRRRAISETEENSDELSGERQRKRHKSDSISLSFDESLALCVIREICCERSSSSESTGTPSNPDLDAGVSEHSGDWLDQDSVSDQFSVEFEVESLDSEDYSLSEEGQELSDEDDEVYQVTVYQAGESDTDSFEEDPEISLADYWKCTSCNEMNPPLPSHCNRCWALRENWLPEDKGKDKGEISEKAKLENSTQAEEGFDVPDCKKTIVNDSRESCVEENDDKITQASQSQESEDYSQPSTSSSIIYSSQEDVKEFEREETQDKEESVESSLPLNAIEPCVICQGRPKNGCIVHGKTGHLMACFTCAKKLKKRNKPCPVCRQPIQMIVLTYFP

Tests used:
MDM2 = MDM2 (Homo sapiens, UniProt Q00987); assay: Kd of fluorescein-labeled macrocycles for MDM2 by direct fluorescence polarization; type: binding
thrombin = thrombin (Homo sapiens, UniProt P00734); assay: Determination of Kis of purified thrombin inhibitors (IC50, Cheng-Prusoff); settings: for IC50 / Ki: thrombin
[1] = Log[MDM2] M -5.4, replicates 1-3
[2] = Log[MDM2] M -5.7, replicates 1-3
[3] = Log[MDM2] M -5.9, replicates 4-5
[4] = Log[MDM2] M -6.0, replicates 1-3
[5] = Log[MDM2] M -6.2, replicates 4-5
[6] = Log[MDM2] M -6.3, replicates 1-3
[7] = Log[MDM2] M -6.5, replicates 4-5
[8] = Log[MDM2] M -6.6, replicates 1-3
[9] = Log[MDM2] M -6.8, replicates 4-5
[10] = Log[MDM2] M -6.9, replicates 1-3
[11] = Log[MDM2] M -7.1, replicates 4-5
[12] = Log[MDM2] M -7.2, replicates 1-3
[13] = Log[MDM2] M -7.4, replicates 4-5
[14] = Log[MDM2] M -7.5, replicates 1-3
[15] = Log[MDM2] M -7.7, replicates 4-5
[16] = Log[MDM2] M -7.8, replicates 1-3
[17] = Log[MDM2] M -8.0, replicates 4-5
[18] = Log[MDM2] M -8.1, replicates 1-3
[19] = Log[MDM2] M -8.3, replicates 4-5
[20] = Log[MDM2] M -8.4, replicates 1-3
[21] = Log[MDM2] M -8.6, replicates 4-5
[22] = Log[MDM2] M -8.9, replicates 4-5
[23] = Log[MDM2] M -9.2, replicates 4-5
[24] = Log[MDM2] M -9.5, replicates 4-5
[25] = Log[MDM2] M -9.8, replicates 4-5
[26] = read-out: KD Replicate 1, FITC-labeled macrocycle, direct FP binding, replicate 1
[27] = read-out: KD Replicate 2, FITC-labeled macrocycle, direct FP binding, replicate 2
[28] = read-out: KD Replicate 3, FITC-labeled macrocycle, direct FP binding, replicate 3
[29] = read-out: KD Replicate 4, FITC-labeled macrocycle, direct FP binding, replicate 4
[30] = read-out: KD Replicate5, FITC-labeled macrocycle, direct FP binding, replicate 5
[31] = read-out: Kd MDM2, direct FP assay, fluorescein-labeled (conjugated) macrocycle, mean ± SD of three independent measurements
[32] = Log[MDM2] M -5.6, replicates 4-5

| SMILES | anisotropy (MDM2; [2]) | anisotropy (MDM2; [4]) | anisotropy (MDM2; [5]) | anisotropy (MDM2; [6]) | anisotropy (MDM2; [7]) | anisotropy (MDM2; [8]) | anisotropy (MDM2; [9]) | anisotropy (MDM2; [10]) | anisotropy (MDM2; [11]) | anisotropy (MDM2; [12]) | anisotropy (MDM2; [13]) | anisotropy (MDM2; [14]) | anisotropy (MDM2; [15]) | anisotropy (MDM2; [16]) | anisotropy (MDM2; [17]) | anisotropy (MDM2; [18]) | anisotropy (MDM2; [19]) | anisotropy (MDM2; [20]) | anisotropy (MDM2; [21]) | anisotropy (MDM2; [22]) | also measured |
| --- | --- | --- | --- | --- | --- | --- | --- | --- | --- | --- | --- | --- | --- | --- | --- | --- | --- | --- | --- | --- | --- |
| O=C(COCCOCCNC(=O)c1ccc2c(c1)C(=O)OC21c2ccc(O)cc2Oc2cc(O)ccc21)NC1CSSCCNC(=O)C(Cc2c[nH]c3ccccc23)NC(=O)C(CNC(=O)c2ccc(Cl)s2)NC(=O)C2CCCN(C2)C1=O (centres unmarked) | 192 and 189 and 188 | 153 and 155 and 164 | 156 and 153 | 117 and 124 and 126 | 110 and 118 | 90 and 95 and 101 | 62 and 54 | 63 and 76 and 75 | 44 and 48 | 58 and 60 and 69 | 51 and 58 | 50 and 48 and 55 | 55 and 46 | 41 and 48 and 49 | 43 and 45 | 43 and 42 and 47 | 48 and 52 | 41 and 40 and 43 | 42 and 40 | 52 and 49 | anisotropy (MDM2; [1]): 206 and 210 and 209; anisotropy (MDM2; [3]): 208 and 202; anisotropy (MDM2; [23]): 46 and 51; anisotropy (MDM2; [24]): 44 and 45; anisotropy (MDM2; [25]): 44 and 48; pKd (MDM2; [26]): 6.19; pKd (MDM2; [27]): 6.16; pKd (MDM2; [28]): 6.21; pKd (MDM2; [29]): 6.22; pKd (MDM2; [30]): 6.23; pKd (MDM2; [31]): 6.20 |
| O=C(COCCOCCNC(=O)c1ccc2c(c1)C(=O)OC21c2ccc(O)cc2Oc2cc(O)ccc21)NC1CSSCCNC(=O)C(Cc2c[nH]c3ccccc23)NC(=O)C(CNC(=O)c2ccc(Cl)cc2)NC(=O)C2CCCN(C2)C1=O (centres unmarked) | 184 (2×) and 181 | 147 and 144 and 157 | 166 and 160 | 106 and 112 and 122 | 118 and 119 | 84 and 81 and 95 | 86 and 84 | 67 and 62 and 77 | 71 and 67 | 52 and 53 and 59 | 57 and 56 | 47 and 48 and 52 | 51 and 55 | 42 and 36 and 45 | 53 and 46 | 40 and 36 and 43 | 49 and 45 | 39 and 37 and 40 | 47 and 43 | 48 and 51 | anisotropy (MDM2; Log[MDM2] M -4.5, replicates 1-3): 245 and 230 and 246; anisotropy (MDM2; Log[MDM2] M -4.8, replicates 1-3): 225 and 226 and 222; anisotropy (MDM2; Log[MDM2] M -5.1, replicates 1-3): 227 and 220 and 222; anisotropy (MDM2; [1]): 204 and 205 and 208; anisotropy (MDM2; [32]): 234 and 240; anisotropy (MDM2; [3]): 203 and 206; anisotropy (MDM2; [23]): 48 and 47; anisotropy (MDM2; [24]): 47 and 50; anisotropy (MDM2; [25]): 47 and 45; pKd (MDM2; [26]): 6.06; pKd (MDM2; [27]): 6.12; pKd (MDM2; [28]): 6.13; pKd (MDM2; [29]): 6.24; pKd (MDM2; [30]): 6.17; pKd (MDM2; [31]): 6.14 |
| O=C(C=Cc1ccccc1)NCC1NC(=O)C2CCCN(C2)C(=O)C(NC(=O)COCCOCCNC(=O)c2ccc3c(c2)C(=O)OC32c3ccc(O)cc3Oc3cc(O)ccc32)CSSCCNC(=O)C(Cc2c[nH]c3ccccc23)NC1=O (centres unmarked) | 207 (2×) and 208 | 182 and 174 and 187 | 195 and 199 | 145 and 146 and 158 | 159 | 117 and 110 and 118 | 108 | 92 and 87 and 84 | 75 | 64 (2×) and 76 | 64 and 58 | 48 and 57 and 63 | 55 and 57 | 41 and 42 and 56 | 53 and 49 | 37 and 39 and 40 | 53 and 49 | 36 and 39 (2×) | 44 and 46 | 46 and 49 | anisotropy (MDM2; [32]): 257 and 256; anisotropy (MDM2; [23]): 51 and 43; anisotropy (MDM2; [24]): 48 and 52; anisotropy (MDM2; [25]): 39 and 41; pKd (MDM2; [26]): 6.44; pKd (MDM2; [27]): 6.36; pKd (MDM2; [28]): 6.41; pKd (MDM2; [29]): 6.44; pKd (MDM2; [30]): 6.48; pKd (MDM2; [31]): 6.43 and 6.42 |
| CC(C)[C@H]1NC(=O)CCCSCCNC(=O)[C@H](CNC(=O)c2ccc(Cl)s2)NC(=O)c2cccc(c2)CNC1=O | – | – | – | – | – | – | – | – | – | – | – | – | – | – | – | – | – | – | – | – | IC50 (thrombin; read-out: IC50 (nM) Average, average of 3 replicates): 175 nM; IC50 (thrombin; read-out: IC50 (nM) Replicate 1, replicate 1): 152 nM; IC50 (thrombin; read-out: IC50 (nM) Replicate 2, replicate 2): 194 nM; IC50 (thrombin; read-out: IC50 (nM) Replicate 3, replicate 3): 180 nM; Ki (thrombin; read-out: Ki (nM) Replicate 1, replicate 1): 117 nM; Ki (thrombin; read-out: Ki (nM) Replicate 2, replicate 2): 150 nM; Ki (thrombin; read-out: Ki (nM) Replicate 3, replicate 3): 139 nM; pKi (thrombin; read-out: Ki thrombin, purified macrocycle, mean ± SD of three independent measurements): 6.87 |
